One block for each compound: values may come before it.
Key:
rSERT = biological target: T1, rSERT (Rattus norvegicus, UniProt P31652); test: [3H]5-HT uptake inhibition, stable CHO cells; assay type: cell-based
T1 construct: gene Slc6a4; previously cloned cDNA; no tag mentioned

The chains behind the UniProt entries cited, without tags or fusion partners. Where a name states a change or a piece, a line headed by the entry shows the natural chain unless it says otherwise.
UniProt P31652, whole entry: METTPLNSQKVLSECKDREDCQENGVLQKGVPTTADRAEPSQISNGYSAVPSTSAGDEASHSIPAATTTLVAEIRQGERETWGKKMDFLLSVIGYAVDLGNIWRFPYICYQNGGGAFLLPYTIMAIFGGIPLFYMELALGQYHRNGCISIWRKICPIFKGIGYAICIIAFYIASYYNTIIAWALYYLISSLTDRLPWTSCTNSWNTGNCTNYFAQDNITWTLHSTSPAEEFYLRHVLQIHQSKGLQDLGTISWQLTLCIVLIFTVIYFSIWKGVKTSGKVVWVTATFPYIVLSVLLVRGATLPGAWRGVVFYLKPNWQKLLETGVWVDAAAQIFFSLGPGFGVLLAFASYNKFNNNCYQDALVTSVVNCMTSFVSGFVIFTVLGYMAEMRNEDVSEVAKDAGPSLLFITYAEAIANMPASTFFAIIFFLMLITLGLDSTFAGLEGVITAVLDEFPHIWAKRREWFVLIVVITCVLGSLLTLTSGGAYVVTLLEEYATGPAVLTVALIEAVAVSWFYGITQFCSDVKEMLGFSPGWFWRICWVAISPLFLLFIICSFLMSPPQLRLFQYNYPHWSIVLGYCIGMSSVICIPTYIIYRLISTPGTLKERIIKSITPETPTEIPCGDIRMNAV

mGAT3 = biological target: T2, mGAT3 (Mus musculus, UniProt P31650); test: cell-based; parameters: gene Slc6a11
T2 sequence (P31650 1-627): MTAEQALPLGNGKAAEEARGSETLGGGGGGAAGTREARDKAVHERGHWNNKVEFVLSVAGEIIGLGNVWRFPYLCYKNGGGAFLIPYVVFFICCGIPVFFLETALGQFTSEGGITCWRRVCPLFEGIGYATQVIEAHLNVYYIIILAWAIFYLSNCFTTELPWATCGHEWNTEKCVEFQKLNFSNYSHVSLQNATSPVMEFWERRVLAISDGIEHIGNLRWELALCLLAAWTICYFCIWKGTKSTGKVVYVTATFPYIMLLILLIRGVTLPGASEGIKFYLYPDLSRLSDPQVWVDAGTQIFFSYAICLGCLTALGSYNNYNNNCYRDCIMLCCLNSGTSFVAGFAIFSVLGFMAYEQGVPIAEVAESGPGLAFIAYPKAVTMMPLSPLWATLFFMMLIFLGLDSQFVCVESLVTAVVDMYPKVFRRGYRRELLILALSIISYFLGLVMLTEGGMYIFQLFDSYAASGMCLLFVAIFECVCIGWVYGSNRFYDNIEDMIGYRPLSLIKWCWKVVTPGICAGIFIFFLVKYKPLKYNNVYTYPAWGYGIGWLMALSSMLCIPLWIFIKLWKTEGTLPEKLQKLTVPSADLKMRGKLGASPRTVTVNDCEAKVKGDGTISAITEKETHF

mGAT1 = mGAT1 (Mus musculus, UniProt P31648); test: cell-based; parameters: gene Slc6a1

- IC50 (rSERT): 0.63 µM
SMILES: CNCCC=C1c2ccccc2CCc2ccccc21 [Nortriptyline]

- IC50 (mGAT3): 4.6 µM
SMILES: NCCCC(=O)O [GABA]

- IC50 (mGAT1): 9.7 µM
SMILES: O=C(O)C1CCCNC1 (stereo not drawn) [Nipecotic acid]

Reference: PMC3317675 (International Journal of Molecular Sciences, 2012)
